Experimental data from US20180344702A1, “METHODS FOR TREATING PATIENTS WITH HEMATOLOGIC MALIGNANCIES” (Aptose Biosciences, Inc., priority 2017, published 2018).

Protein sequences, listed by entry. Tags and fused reporters are not part of them. Lines headed by an entry give the natural chain unless they say otherwise; changes in a name come on top.
UniProt Q06187: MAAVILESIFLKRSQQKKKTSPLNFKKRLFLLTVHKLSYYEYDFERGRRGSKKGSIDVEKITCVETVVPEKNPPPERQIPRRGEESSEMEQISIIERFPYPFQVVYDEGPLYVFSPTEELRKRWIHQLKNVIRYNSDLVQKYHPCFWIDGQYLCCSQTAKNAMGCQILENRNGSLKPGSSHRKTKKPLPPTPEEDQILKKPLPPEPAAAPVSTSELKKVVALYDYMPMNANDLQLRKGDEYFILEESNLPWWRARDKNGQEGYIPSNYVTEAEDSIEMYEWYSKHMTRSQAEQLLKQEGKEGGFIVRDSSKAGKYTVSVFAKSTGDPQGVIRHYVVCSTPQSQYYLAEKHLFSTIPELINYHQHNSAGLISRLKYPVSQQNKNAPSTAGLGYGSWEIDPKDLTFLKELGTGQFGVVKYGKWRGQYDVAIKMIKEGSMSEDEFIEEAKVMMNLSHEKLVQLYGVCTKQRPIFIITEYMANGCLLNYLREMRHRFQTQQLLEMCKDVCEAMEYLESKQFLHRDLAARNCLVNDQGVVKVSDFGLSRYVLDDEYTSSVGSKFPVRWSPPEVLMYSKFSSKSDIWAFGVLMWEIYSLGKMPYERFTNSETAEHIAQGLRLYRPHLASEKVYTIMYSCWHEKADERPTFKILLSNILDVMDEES

Biological target: BTK WT (Homo sapiens, UniProt Q06187)
Assay: Comparative potency against BTK (Table 8)
Assay type: biochemical
Settings: Table 8, wild-type BTK

- IC50: < 0.5 nM
Compound: C=CC(=O)Nc1cccc(Nc2nc(Nc3ccc(OCCOC)cc3)ncc2F)c1 [CC-292]
